Some compounds may have been tested in ways that are not shown here.
Experiment: Dissociation constant, pKa of the compound

With `CCC(=O)N(c1ccccc1)C1CCN(CCc2ccccc2)CC1` the pKa was > 8.

Source: ChEMBL document CHEMBL4613261, “Metabolic and Pharmaceutical Aspects of Fluorinated Compounds” (J Med Chem, 2020)
